Measured values published in patent US20240299568A1, “BONE-SPECIFIC DELIVERY OF POLYPEPTIDES” (William Marsh Rice University, priority 2021, published 2024).

What was measured:
[1] = test system: MDA-MB-468 cells; assay: In vitro cytotoxicity (MTT); assay type: cell-based; settings: MDA-MB-468 (Her2 0), 4 d
Procedure: SK-BR-3, BT474, and MDA-MB-468 cells were seeded in 200 μL of culture medium into 96-well plates at a density of 2×10^3 cells/well and incubated overnight to allow attachment. […] 20 μL of MTT solution (5 mg/mL) was then added to each well and incubated for another 4 h. Medium was aspirated and 150 μL DMSO was added to each well. The absorbance at 570 nm was measured by microplate reader (Infinite M Plex by Tecan) to quantify living cells.

[2] = HA binding assay; settings: did not change significantly with longer incubation
[3] = test system: MCF-7 (HER2-, ER+) cancer cells; assay: MCF-7 HER2-negative bone micrometastasis model (IIA injection); settings: ex vivo at day 68; 1 mg/kg
[4] = Native bone binding assay; design: species or system mice; settings: did not change significantly with longer incubation
[5] = Binding to bone cryosections; design: species or system C57BL/6 mice; settings: 50 μg/mL overnight at 4° C.; xylenol orange counterstain
Procedure: Enhanced Targeting of the Bone Metastatic Niche by Tras-ALN in vitro and in vivo. Next, the ability of the Tras-ALN conjugate to target bone tissue was explored. […] Before imaging via confocal laser scanning microscopy, these bone sections were further stained for 30 min with 4 μg/mL xylenol orange (XO, known to label bone). […] Furthermore, localization of the Tras-ALN signal correlated well with the XO signal, confirming the specific targeting of bone by Tras-ALN.
Binding to bone cryosections. […] After washing 3 times with PBS, specimens were incubated for 30 min at 37° C. with Xylenol Orange (XO) (stock: 2 mg/ml, dilute 1:500, dilute buffer: PBS pH 6.5). After three washes with PBS, specimens were stained with Hoechst 33342 (stock 10 mg/ml, dilute 1:2000) for 10 min. Slides were then washed with PBS, air dried, and sealed with Prolong™ gold anti-fade mountant (from ThermoFisher).

[6] = single dose 1 mg/kg retro-orbital; serum for 7 days
[7] = mouse, 1 mg/kg

With trastuzumab the IC50 [1] was greater than 500 µg/mL, the “binding to HA” value [2] was “only slight binding” and the “metastatic cells observed, liver” value [3] was 33.4%. The “metastatic cells observed, lung” value [3] was 83.4%, the “metastatic cells observed, right hind limb” value [3] was 83.4% and the “binding to native bone” value [4] was “only slight binding”. The “FITC signal (anti-human IgG) on non-decalcified bone sections” value [5] was “not in sections stained with unmodified Tras” and the “serum concentration over time, Tras versus Tras-ALN” value [6] was “did not show significant differences”.

With “Tras-ALN: trastuzumab site-specifically coupled by pClick (azide moiety reacted with BCN-functionalized ALN) to the bisphosphonate Alendronate” the IC50 [1] was greater than 500 µg/mL, the “FITC (anti-human IgG) signal in bone sections after in vivo dosing” value [7] was “FITC signals were only observed in sections from the right leg harboring MDA-MB-361 tumors” and the “FITC signal (anti-human IgG) on non-decalcified bone sections” value [5] was “FITC signal was observed”.
